# Test results: publication PMC10797628
# Sequences of proteins named here, by UniProt entry; tags and fusion partners are left off.
# UniProt P08908, whole entry: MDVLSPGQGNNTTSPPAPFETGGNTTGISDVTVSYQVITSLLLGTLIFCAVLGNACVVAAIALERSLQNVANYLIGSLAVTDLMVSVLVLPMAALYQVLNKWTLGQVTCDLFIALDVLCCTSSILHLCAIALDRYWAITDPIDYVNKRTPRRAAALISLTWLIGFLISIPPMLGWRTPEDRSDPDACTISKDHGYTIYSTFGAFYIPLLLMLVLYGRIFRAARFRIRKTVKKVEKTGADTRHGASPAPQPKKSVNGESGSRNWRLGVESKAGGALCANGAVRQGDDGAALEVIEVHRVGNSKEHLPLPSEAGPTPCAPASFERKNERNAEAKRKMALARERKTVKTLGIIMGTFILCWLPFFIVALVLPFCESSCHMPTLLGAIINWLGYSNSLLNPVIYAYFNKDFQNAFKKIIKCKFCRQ
# Target: T1, human 5-HT1A receptor (Homo sapiens, UniProt P08908)
# T1 construct: host or cells: HEK293T
# Assay: cAMP accumulation (LANCE Ultra TR-FRET) in HEK293T cells, WT 5-HT1A
# Format: cell-based
# Settings: normalized to basal (0%) and 10 μM 5-CT (100%)
structure (smiles),measurement,value
"NCCc1c[nH]c2ccc(C(N)=O)cc12 [5-CT, 5-carboxamidotryptamine, reference compound]",5-HT1A EMAX (%),100 ± 2%
